The target of one assay is IKKε (Homo sapiens, UniProt Q14164). The assay can be described thus: IKKe Biochemical Assay. The following applies: read-out: IKKε IC50. The method, then: Test compounds were transferred into Labcyte polypropylene 384 well plates (P055-25) and diluted to 3 mM using DMSO. 3 mM test compounds were dispensed using Labcyte ECHO dose response module into (Greiner 784075 plates (columns 3-12 and 13-22, 10 point 1:4) so that high concentration was 30 uM final. 100 uM of a reference compound (1 uM final high concentration). Backfilling was performed if necessary so that all wells contain 1% DMSO final: […]
add 75 nl DMSO/well into columns 1, 2 and 24 using Labcyte Echo. add 75 nl 1.0 mM staurosporine/well into column 23 using Labcyte Echo (10 uM final) add 4.5 ul enzyme/well using multidrop dispenser add 3 ul substrate/well using multidrop dispenser incubate at 25° C. for 90 min. add 7.5 ul 2× stop buffer read on labchip ez reader II using IKKε. job
(§1) Raw data files were opened in the Caliper LabChip Reviewer program (Version 3.0.265.0 SP2) and peak assignments were adjusted to reflect “substrate first” with the software's post-run analysis options. A spline-fit baseline was applied using the software's analysis algorithm.

By UniProt entry, the sequences of proteins in these tests, tags left out.
UniProt Q14164, whole entry: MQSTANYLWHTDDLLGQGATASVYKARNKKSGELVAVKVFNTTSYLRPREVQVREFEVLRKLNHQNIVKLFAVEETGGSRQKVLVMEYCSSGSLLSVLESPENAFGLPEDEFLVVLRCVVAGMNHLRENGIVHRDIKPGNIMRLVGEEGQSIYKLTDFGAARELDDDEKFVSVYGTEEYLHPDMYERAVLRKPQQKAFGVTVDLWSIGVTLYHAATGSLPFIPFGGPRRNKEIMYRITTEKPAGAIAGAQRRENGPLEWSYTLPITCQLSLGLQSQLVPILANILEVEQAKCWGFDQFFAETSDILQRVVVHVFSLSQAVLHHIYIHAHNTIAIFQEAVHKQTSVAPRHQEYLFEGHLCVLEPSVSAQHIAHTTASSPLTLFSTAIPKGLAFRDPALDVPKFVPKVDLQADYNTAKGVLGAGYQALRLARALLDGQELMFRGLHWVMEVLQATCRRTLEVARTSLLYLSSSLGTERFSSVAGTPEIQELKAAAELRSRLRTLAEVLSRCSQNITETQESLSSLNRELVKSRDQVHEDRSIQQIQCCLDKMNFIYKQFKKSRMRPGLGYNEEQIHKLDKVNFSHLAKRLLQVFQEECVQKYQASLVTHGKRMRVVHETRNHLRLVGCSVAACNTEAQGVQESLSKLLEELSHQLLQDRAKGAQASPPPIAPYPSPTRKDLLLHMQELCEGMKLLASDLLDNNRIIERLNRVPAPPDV
UniProt Q9UHD2, whole entry: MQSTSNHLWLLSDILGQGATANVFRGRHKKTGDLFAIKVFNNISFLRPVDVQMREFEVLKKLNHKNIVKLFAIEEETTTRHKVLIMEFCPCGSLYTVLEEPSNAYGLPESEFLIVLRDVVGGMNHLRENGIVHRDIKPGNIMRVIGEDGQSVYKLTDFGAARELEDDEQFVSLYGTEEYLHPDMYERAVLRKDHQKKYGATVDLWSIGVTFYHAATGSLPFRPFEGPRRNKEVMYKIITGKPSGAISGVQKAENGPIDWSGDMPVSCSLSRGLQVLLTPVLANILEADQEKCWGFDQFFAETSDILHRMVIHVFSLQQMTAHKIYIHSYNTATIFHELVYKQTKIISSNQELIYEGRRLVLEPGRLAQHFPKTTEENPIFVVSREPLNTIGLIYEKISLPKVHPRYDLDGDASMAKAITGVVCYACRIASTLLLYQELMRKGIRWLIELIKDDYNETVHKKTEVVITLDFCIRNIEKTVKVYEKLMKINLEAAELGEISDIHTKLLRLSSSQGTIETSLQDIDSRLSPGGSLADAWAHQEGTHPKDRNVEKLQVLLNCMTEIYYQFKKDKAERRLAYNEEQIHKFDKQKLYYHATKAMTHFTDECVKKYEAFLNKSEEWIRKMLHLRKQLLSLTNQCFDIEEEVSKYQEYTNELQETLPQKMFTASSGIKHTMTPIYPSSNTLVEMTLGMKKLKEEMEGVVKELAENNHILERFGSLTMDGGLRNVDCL

Assay [1] has as its system phosphorylation of the IRF-3 protein in MDA-MB-468 cells. The assay can be described thus: pIRF3 immunocytochemistry cell based assay. On the procedure: The purpose of the pIRF3 immunocytochemistry cell based assay was to identify small molecules which modulates TBK/IKKe kinase activity through on target substrate phosphorylation of the IRF-3 protein. On the first day of the experiment, MDA-MB-468 cells were plated in 384 well, black, clear-bottom, Poly D lysine coated plates at a density of 5000 cells/well in 45 ul of complete DMEM and allowed to adhere overnight. On the second day compounds were added to cells at a starting concentration of 10 uM with a serial dilution of 3-fold for a total of 10 points. The cells were incubated for 1 hr at 37° C. Cells were then stimulated with Poly(I:C) at a final concentration of 10 ug/ml, and were incubated for 2 hr at 37° C. Following the incubation, media was removed from the wells and the cells were fixed with 4% PFA for 15 min at RT. Cells were washed at least 3 times with PBS, and then permeabilized with ice-cold methanol for 10 min at RT. The washing step was repeated and the cells were then blocked using 10% goat serum/1% BSA, made up in PBS and allowed to incubate at RT for 1 hr. The cells were washed again and then treated with an anti-pIRF3 antibody at 4° C. overnight (1:250 dilution of Abcam ab76493 in PBS containing 1% BSA). On the third day the primary antibody was washed off and pIRF3 was detected by adding the secondary antibody conjugated to AlexaFluor488 (1:200 dilution of secondary antibody in PBS containing 1% BSA) for 1 hr at RT. Cells were washed and then counterstained with PI/RNase staining buffer for 15 min at RT and read on the Acumen Explorer laser scanning cytometer. The percentage of phosphorylation of the IRF-3 protein was calculated using the following algorithm, a modified version of the mean half width intensity (pIRF3 staining)/(PI staining or # of cells)×100%). IC50 curves were generated using the Genedata software.

Another assay has as its target TBK1 (Homo sapiens, UniProt Q9UHD2). The assay can be described thus: TBK Biochemical Assay. The following applies: read-out: TBK1 IC50. On the procedure:
Example 482: TBK Biochemical Assay
Test compounds were transferred into Labcyte polypropylene 384 well plates (P055-25) and diluted to 3 mM using DMSO. 3 mM test compounds were dispensed using Labcyte ECHO dose response module into Greiner 784075 plates (columns 3-12 and 13-22, 10 point 1:4) so that high concentration was 30 uM final. 100 uM of a reference compound (1 uM final high concentration). Backfilling was performed if necessary so that all wells contain 1% DMSO final: […]
add 75 nl DMSO/well into columns 1, 2 and 24 using Labcyte Echo. add 75 nl 1.0 mM staurosporine/well into column 23 using Labcyte Echo ([…]) add 4.5 ul enzyme/well using multidrop dispenser add 3 ul substrate/well using multidrop dispenser incubate at 25° C. in Heidolph incubator for 90 min. add 7.5 ul 2× stop buffer using multidrop dispenser read on labchip ez reader II using TBK1.job
as §1

Where [2] appears, read: read-out: pIRF3 IC50, Poly(I:C) stimulation.

Molecules are shown by their SMILES. Like-named read-outs stand apart in the source and are kept apart here.

As to `COc1cc(C(=O)N(C)CCO)cnc1-c1cc2nccc(-c3ccc(N4CC[C@@H](F)C4)c(C#N)c3)c2o1`, the IC50 at IKKε was less than 100 nM; in assay [1] (setting [2]) it was 100 to 1000 nM; on TBK1 it was less than 100 nM.

Regarding `COc1cc(C(=O)NC2C3COCC32)ncc1-c1cc2nccc(-c3ccc(N4CCC(F)C4)c(C#N)c3)c2o1` (centres unmarked), the 50% inhibitory concentration (IC50) on IKKε and on TBK1 was less than 100 nM throughout.

As to `COc1cc(C(=O)N2CCCCC2)ncc1-c1cc2nccc(-c3ccc(OC4CCOCC4)c(C#N)n3)c2o1`, the IC50 (on IKKε; in assay [1] (setting [2]); at TBK1) was less than 100 nM each time.

For the compound `COc1cc(C(=O)N2CCCCN2)ncc1-c1cc2nccc(-c3ccc(OC4CCOCC4)c(C#N)c3)c2o1`, the IC50 at IKKε was less than 100 nM; in assay [1] (setting [2]), 100 to 1000 nM; on TBK1, less than 100 nM.

As for `COc1cc(C(=O)N2CCCCC2)ncc1-c1cc2nccc(-c3ccc(OC4CCOCC4)c(C#N)c3)c2o1`, the half-maximal inhibitory concentration (IC50) on IKKε (tested form: HCl) was less than 100 nM; in assay [1] (read-out: pIRF3 IC50, Poly(I:C) stimulation, tested form: HCl), 100 to 1000 nM; on TBK1 (tested form: HCl), less than 100 nM.

Usually IC50 stands for the concentration at which inhibition is half-maximal.

For the origin of these results see US10428080B2, “TBK/IKK inhibitor compounds and uses thereof” (Merck Patent GmbH, priority 2015, dated 2019).
